One assay deals with hPPARγ (LBD) (Homo sapiens, UniProt P37231). Nature of the assay: GAL4-hPPARγ (LBD) luciferase reporter transactivation in CV-1 cells. The following applies: read-out: PPAR activities EC50 PPARγ, about 40 hours, relative to Rosiglitazone as 100%.
The target of another assay is hPPARδ (LBD) (Homo sapiens, UniProt Q03181). Nature of the assay: GAL4-hPPARδ (LBD) luciferase reporter transactivation in CV-1 cells. The following applies: for EC50: read-out: PPAR activities EC50 PPARδ, CV-1 cells, about 40 hours, relative to GW-501516 as 100%. A general note: In a reporter assay the amount or activity of a reporter protein is the signal.
The next assay has as its target hPPARα (LBD) (Homo sapiens, UniProt Q07869). The experiment in a line: GAL4-hPPARα (LBD) luciferase reporter transactivation in CV-1 cells. The following applies: read-out: PPAR activities EC50 PPARα, about 40 hours, relative to GW-590735 as 100%.

Chains of the proteins cited; added tags and fusions are not shown. Lines headed by an entry give the natural chain unless they say otherwise; changes in a name come on top. Residues count along the entry.
UniProt P37231, 238-503 limits assumed: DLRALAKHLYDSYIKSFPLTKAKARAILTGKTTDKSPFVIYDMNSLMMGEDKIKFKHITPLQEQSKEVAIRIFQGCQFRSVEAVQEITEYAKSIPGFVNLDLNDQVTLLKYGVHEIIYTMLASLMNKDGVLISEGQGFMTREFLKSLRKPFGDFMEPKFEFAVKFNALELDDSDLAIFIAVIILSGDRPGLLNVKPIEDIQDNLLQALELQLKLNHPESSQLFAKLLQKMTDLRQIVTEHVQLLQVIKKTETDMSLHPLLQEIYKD
UniProt Q03181, 211-439 limits assumed: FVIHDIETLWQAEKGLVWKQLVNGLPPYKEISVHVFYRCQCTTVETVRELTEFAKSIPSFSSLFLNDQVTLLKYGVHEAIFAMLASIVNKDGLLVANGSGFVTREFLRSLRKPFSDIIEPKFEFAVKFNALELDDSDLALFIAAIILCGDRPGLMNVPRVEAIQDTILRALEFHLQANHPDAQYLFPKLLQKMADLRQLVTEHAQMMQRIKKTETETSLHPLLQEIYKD
UniProt Q07869, 239-466 limits assumed: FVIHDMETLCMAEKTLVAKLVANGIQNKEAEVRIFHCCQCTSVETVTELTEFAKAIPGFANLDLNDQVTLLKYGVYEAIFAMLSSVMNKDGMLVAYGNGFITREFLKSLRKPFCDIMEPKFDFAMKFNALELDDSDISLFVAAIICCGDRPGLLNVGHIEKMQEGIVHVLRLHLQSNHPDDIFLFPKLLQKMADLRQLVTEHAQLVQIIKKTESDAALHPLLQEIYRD

Broadly, the EC50 is the midpoint of the concentration-response curve.

`CCc1cc(COc2ccccc2Cn2c(N)nc3cc(Br)ccc32)ccc1OCC(=O)O`: the EC50 on hPPARγ (LBD) is 5.68 µM; at hPPARδ (LBD) it was 1.62 µM; on hPPARα (LBD), 0.243 µM.

`CCc1cc(COc2ccc(OC)cc2Cn2c(CC)nc3cc(Br)ccc32)ccc1OCC(=O)O`: the EC50 was found to be 13.4 µM at hPPARγ (LBD), 21.1 µM on hPPARδ (LBD) and 0.376 µM on hPPARα (LBD). The “PPARδ activator effect (in words)” value on hPPARδ (LBD) (summary of Table 3) was “strong and selective PPARδ activator effect”.

For the origin of these results see patent US12522569B2, “Substituted benzimidazole derivative and use thereof” (Chengdu FANXI Biopharma Co., Ltd., priority 2020, dated 2026).
